# Measurements from IntAct's records for PubMed 19270718.
# B1: Transcription factor p65 (Homo sapiens), Q04206 (parent)
# chain: MDELFPLIFPAEPAQASGPYVEIIEQPKQRGMRFRYKCEGRSAGSIPGERSTDTTKTHPTIKINGYTGPGTVRISLVTKDPPHRPHPHELVGKDCRDGFYEAELCPDRCIHSFQNLGIQCVKKRDLEQAISQRIQTNNNPFQVPIEEQRGDYDLNAVRLCFQVTVRDPSGRPLRLPPVLSHPIFDNRAPNTAELKICRVNRNSGSCLGGDEIFLLCDKVQKEDIEVYFTGPGWEARGSFSQADVHRQVAIVFRTPPYADPSLQAPVRVSMQLRRPSDRELSEPMEFQYLPDTDDRHRIEEKRKRTYETFKSIMKKSPFSGPTDPRPPPRRIAVPSRSSASVPKPAPQPYPFTSSLSTINYDEFPTMVFPSGQISQASALAPAPPQVLPQAPAPAPAPAMVSALAQAPAPVPVLAPGPPQAVAPPAPKPTQAGEGTLSEALLQLQFDDEDLGALLGNSTDPAVFTDLASVDNSEFQQLLNQGIPVAPHTTEPMLMEYPEAITRLVTGAQRPPDPAPAPLGAPGLPNGLLSGDEDFSSIADMDFSALLSQISS
# partner: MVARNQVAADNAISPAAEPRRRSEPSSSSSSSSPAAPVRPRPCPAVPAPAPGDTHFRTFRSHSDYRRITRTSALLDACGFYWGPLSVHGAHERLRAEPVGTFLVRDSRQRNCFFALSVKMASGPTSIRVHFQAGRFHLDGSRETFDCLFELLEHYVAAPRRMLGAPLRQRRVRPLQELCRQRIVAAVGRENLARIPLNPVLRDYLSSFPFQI
# B2: Transcription factor p65 (Homo sapiens), Q04206 (parent)
# chain: B1 chain
# Variants of: B1
# Conditions: with socs1_mouse Socs1, O35716
row,effect of a mutation on the interaction,Variant
1,decreasing interaction,S468A

# Variants of: B2
# Conditions: with cul2_mouse Cul2, Q9D4H8
row,effect of a mutation on the interaction,Variant
1,disrupting interaction,S468A
